Reference: patent US20080176907A1, “NOS Inhibitors For Treatment Of Motor Deficit Disorders” (Northwestern University, priority 2006, published 2008)

Tests used:
eNOS [1] = biological target: T1, eNOS (Bos taurus, UniProt P29473); conditions: read-out: Ki eNOS
eNOS [2] = biological target: T1, eNOS; experiment: biochemical

SMILES	Ki (eNOS [1]) [µM]	Ki (eNOS [2]) [µM]
N=C(NCCC[C@H](N)C(=O)N[C@H]1CN[C@H](C(N)=O)C1)N[N+](=O)[O-] [compound 3]	128	
N=C(NCCC[C@H](N)C(=O)O)N[N+](=O)[O-] [εNNA, L-N^ω-nitroarginine]		0.75

Read-outs that look alike come from different tables or passages of the source.
